According to patent US12128018B2, “Combination of a selective histone deacetylase 3 (HDAC3) inhibitor and an immunotherapy agent for the treatment of cancer” (KDAc Therapeutics, Inc., priority 2018, dated 2024):

System: MHC class II (IA-IE) in P388D1 cells
Assay: in vitro induction of MHC class II (IA-IE) in P388D1 cells (FACS)
Settings: various concentrations (FIGS. 14 and 15)

Nc1cc(F)ccc1NC(=O)N1Cc2ccccc2C1
MHC class II protein levels (geometric mean MFI): capable of increasing MHC class II protein levels
